Experiment: Biodistribution of radiolabeled cyanocobalamin derivatives in tumor bearing mice
Format: in vivo, balb/c mice
Conditions: 24 h after i.v. injection of radioactive labeled derivative, tumor bearing mice (melanoma B16-F10), vitamin-free diet, figures use percent of injected radioactivity per gram of tissue
Experimental: For in vivo studies and for binding studies to the transport vectors, very high specific activity was demanded. Therefore, 100 μl of the labeled solution were injected to an analytical HPLC system to separate the hot from the cold vitamin derivative. The eluate fraction with the highest gamma activity (ca. 300 μl) was diluted with normal saline to a concentration of 10 μCi per animal before i.v. injection. Separation condition were: acetate buffer, XTerra RP8 column, gradient: 0% methanol (0 min), 30% methanol (15 min), 100% methanol (25 min) for the b and d-derivatives, and the TEAP system as described by Schibli et al. (Bioconjugate Chem. 2000, 343-351) for the other compounds.
For biodistribution studies with ^57Co-cyanocobalamin, 0.2 μCi/1 ng of the radiolabeled cyanocobalamin is mixed with 180 μl normal saline and injected i.v. in tumor bearing balb/c mice (syngeneic mouse melanoma B16-F10). After a specified time (5 min to 24 h), animals are sacrificed, the organs weighted and counted on a gamma counter. For biodistribution studies with ^99mTc-labeled cyanocobalamin, 10 μCi/0.5 ng of the radiolabelled cyanocobalamin is mixed with normal saline and used as before. For biodistribution with ^111In-labeled cyanocobalamin, 2 μCi/5 ng of the radiolabeled cyanocobalamin is mixed with normal saline and used as before. To study the effect of Vitamin B12 deficient food, the biodistribution of labeled cyanocobalamin is compared in mice fed with normal food with the biodistribution in mice fed with vitamin B12 deficient food for a period of 2 weeks.

Substance: Cyanocobalamin-b-butyl-aminocarboxymethyl-His-OMe [Example 6]
- Tissue distribution: Blood: 2.4 %ID/g
- Tissue distribution: Kidney: 15.8 %ID/g
- Tissue distribution: Tumor: 7.3 %ID/g
- Tissue distribution: Liver (in %ID/g): 7.40

From patent publication US7585852B2, “Cobalamine derivatives useful for diagnosis and treatment of abnormal cellular proliferation” (Solidago AG, priority 2003, dated 2009)
